According to patent US20230255912A1, “COMPOSITIONS AND METHODS FOR TREATING CRP-MEDIATED DISEASES” (Ponce de Leon Health Designated Activity Company, priority 2020, published 2023):
Like-named read-outs stand apart in the source and are kept apart here.

Experiments:
[1] = for A1C: baseline 5.0; for PSA: baseline 7.5; for LDL: baseline 103
Description: METHOD EXAMPLE. Blood chemistry. […] Prior to the start of dosing, a baseline blood draw is obtained for hematology, chemistry, CRP measurement, and metabolite analyses. After the start of dosing, blood draws are obtained monthly.

[2] = cited from earlier work
[3] = test system: C-reactive protein (CRP)
Description: METHOD EXAMPLE. […] Prior to the start of dosing, a baseline blood draw is obtained for hematology, chemistry, CRP measurement, and metabolite analyses. After the start of dosing, blood draws are obtained monthly.

[4] = test system: inflammatory cytokines; conditions: female mice treated from 18 months to 29 months, compared to aged controls
Method: METHOD EXAMPLE. Cytokine Levels in Aged Mice. Female mice (18 months) are divided into treatment and untreated groups. Baseline levels of 30 inflammatory cytokines are measured. […] Following treatment, levels of 30 inflammatory cytokines are measured from serum samples and compared to untreated controls.

Row | Structure (SMILES) | relative levels of good versus bad cholesterol ([1]; human volunteer, vs baseline) | serious adverse events in clinical trials [2] | toxicological profile ([2]; in vivo) | decrease in CRP level, Subject 1 ([3]; Subject 1, after only 3 months of treatment vs baseline) [%] | decrease in CRP level, Subject 2 ([3]; Subject 2, starting low level of CRP, 3-7 months of treatment vs baseline) [%] | change in CRP level in treated subjects ([3]; all treated subjects, 3-7 months of treatment vs baseline) | average decrease in CRP level ([3]; human volunteers, two 500 mg CaAKG tablets daily, 3-7 months of treatment vs baseline (t=0)) [%] | A1C ([1]; 10 Months) [%] | PSA ([1]; 10 Months) [ng/mL] | LDL ([1]; 10 Months) [mg/dL] | A1C ([1]; 12 Months) [%] | PSA ([1]; 12 Months) [ng/mL] | LDL ([1]; 12 Months) [mg/dL] | average of 30 cytokines in serum [4]
1 | O=C(O)CCC(=O)C(=O)O [AKG, 2-oxopentanedioic acid] | improves | No serious adverse events | non-toxic | – | – | – | – | – | – | – | – | – | – | –
2 | O.O=C([O-])CCC(=O)C(=O)[O-].[Ca+2] [Ca-AKG, calcium alpha-ketoglutarate monohydrate] | – | No serious adverse events | – | 84 | 25 | A decrease in CRP level was observed in all treated subjects | 54 | 5.1 | 10.1 | 98 | 4.9 | 7.7 | 95 | general reduction
